Results reported in patent US6090786A, “Serine proteases, their activity and their synthetic inhibitors” (priority 1994, dated 2000).

Chains of the proteins cited; added tags and fusions are not shown.
UniProt P27487, whole entry: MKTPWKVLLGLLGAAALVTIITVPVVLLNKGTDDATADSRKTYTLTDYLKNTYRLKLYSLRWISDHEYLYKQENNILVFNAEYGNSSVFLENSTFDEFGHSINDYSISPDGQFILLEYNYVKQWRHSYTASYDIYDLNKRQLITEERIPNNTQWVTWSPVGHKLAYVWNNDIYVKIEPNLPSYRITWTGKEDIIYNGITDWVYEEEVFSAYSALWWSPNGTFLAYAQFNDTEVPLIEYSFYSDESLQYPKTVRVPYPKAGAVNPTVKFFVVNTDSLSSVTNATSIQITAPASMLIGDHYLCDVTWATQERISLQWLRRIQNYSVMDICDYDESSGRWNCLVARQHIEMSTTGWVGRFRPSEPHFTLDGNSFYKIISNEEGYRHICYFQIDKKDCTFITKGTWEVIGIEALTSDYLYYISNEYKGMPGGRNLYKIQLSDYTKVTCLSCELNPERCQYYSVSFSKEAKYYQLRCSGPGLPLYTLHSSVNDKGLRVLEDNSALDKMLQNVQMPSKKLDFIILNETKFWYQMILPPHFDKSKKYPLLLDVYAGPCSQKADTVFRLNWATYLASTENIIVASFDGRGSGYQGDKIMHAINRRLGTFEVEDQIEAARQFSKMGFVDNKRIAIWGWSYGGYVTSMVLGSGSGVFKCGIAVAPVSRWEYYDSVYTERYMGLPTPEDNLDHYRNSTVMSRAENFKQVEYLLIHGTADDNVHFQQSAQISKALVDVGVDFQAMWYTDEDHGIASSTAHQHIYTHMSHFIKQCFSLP

Target: T1, DPPIV (Homo sapiens, UniProt P27487)
T1 construct: from tissue; host or cells: prostasomes from human seminal plasma, purified on immobilized adenosine deaminase
Assay: Stability of the inhibitor-DPPIV adduct
Assay type: biochemical
Details: DPPIV incubated with 0.5 mM inhibitor 1 hour, excess removed by gel filtration

Row | SMILES | stability of the adduct at room temperature
1 | N[C@@H](Cc1cccc2ccccc12)C(=O)N1CCC[C@H]1P(=O)(Oc1ccccc1)Oc1ccccc1 [1-naphthyl-alanine-Pro^P -(OPh)2, Diphenyl (R)-1-[(S)-(1-naphthyl)alanyl]pyrrolidine-2-phosphonate hydrochloride] | > 4 weeks
2 | N[C@@H](CC1CCCCC1)C(=O)N1CCC[C@H]1P(=O)(Oc1ccccc1)Oc1ccccc1 [Cyclohexylalanine-Pro^P -(OPh)2, Diphenyl (R)-1-[(S)-cyclohexylalanyl]pyrrolidine-2-phosphonate hydrochloride] | > 4 weeks

Where a name gives a salt, the structure may show the parent alone.
